The record followed here is publication PMC2670953 (Journal of molecular biology, 2009).

The assay has as its target DNA polymerase II (Pol II) of E. coli (E. coli, UniProt P21189). The assay is described as follows: SPR.

B1: wild type E. coli β sliding clamp, N-terminally His6 and cAMP-dependent kinase motif tagged (natural protein)
chain: MKFTVEREHLLKPLQQVSGPLGGRPTLPILGNLLLQVADGTLSLTGTDLEMEMVARVALVQPHEPGATTVPARKFFDICRGLPEGAEIAVQLEGERMLVRSGRSRFSLSTLPAADFPNLDDWQSEVEFTLPQATMKRLIEATQFSMAHQDVRYYLNGMLFETEGEELRTVATDGHRLAVCSMPIGQSLPSHSVIVPRKGVIELMRMLDGGDNPLRVQIGSNNIRAHVGDFIFTSKLVDGRFPDYRRVLPKNPDKHLEAGCDLLKQAFARAAILSNEKFRGVRLYVSENQLKITANNPEQEEAEEILDVTYSGAEMEIGFNVSYVLDVLNALKCENVRMMLTDSVSSVQIEDAASQSAAYVVMPMRL
The molecule B1 registered a Kd of 31.6 nM, a koff of 0.00119 s⁻¹ and a kon of 37700 M⁻¹ s⁻¹.

One may read the Kd as the concentration at which binding is half-saturated. A higher Kd goes with lower affinity. As a reminder, the koff is a measure of how fast the partners let go of each other. Higher therefore signals fast dissociation. By kon is commonly meant the rate constant with which the complex forms. A low value points to slower complex formation.
